System: T1, rCviUPO
T1 construct: gene CviUPO
Conditions: read-out: rCviUPO; inhibition by excess substrate (same compound as substrate); 1 mM H2O2; 0.1 M acetate pH 4.0

Km: 239 ± 8 µM
SMILES: CCn1c(=NN=c2sc3cc(S(=O)(=O)O)ccc3n2CC)sc2cc(S(=O)(=O)O)ccc21 [ABTS, 2,2′-azino-bis(3-ethylbenzothiazoline-6-sulfonic acid)]

— article PMC9137552, “Structural Characterization of Two Short Unspecific Peroxygenases: Two Different Dimeric Arrangements” (Antioxidants, 2022)
